The target of assay [1] is T1, Transient receptor potential cation channel subfamily V member 1 (Rattus norvegicus, UniProt O35433). The assay is described as follows: Antagonist activity at rat TRPV1 expressed in CHO cells by 45Ca2+ uptake assay.
The target in assay [2] is T1, Transient receptor potential cation channel subfamily V member 1. The assay is described as follows: Displacement of [3H]RTX from rat TRPV1 expressed in CHO cells. Type of assay: cell-based. In a few lines:
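Competitive binding against [3H]RTX on rat TRPV1 heterologously expressed in CHO cells. Affinity reported as Ki (nM). Values are mean ± SEM from 3 or more experiments.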
On the technique in general: Displacement assays read how much labelled ligand stays bound in the presence of the test substance.

By UniProt entry, the sequences of proteins in these tests, tags left out.
UniProt O35433, whole entry: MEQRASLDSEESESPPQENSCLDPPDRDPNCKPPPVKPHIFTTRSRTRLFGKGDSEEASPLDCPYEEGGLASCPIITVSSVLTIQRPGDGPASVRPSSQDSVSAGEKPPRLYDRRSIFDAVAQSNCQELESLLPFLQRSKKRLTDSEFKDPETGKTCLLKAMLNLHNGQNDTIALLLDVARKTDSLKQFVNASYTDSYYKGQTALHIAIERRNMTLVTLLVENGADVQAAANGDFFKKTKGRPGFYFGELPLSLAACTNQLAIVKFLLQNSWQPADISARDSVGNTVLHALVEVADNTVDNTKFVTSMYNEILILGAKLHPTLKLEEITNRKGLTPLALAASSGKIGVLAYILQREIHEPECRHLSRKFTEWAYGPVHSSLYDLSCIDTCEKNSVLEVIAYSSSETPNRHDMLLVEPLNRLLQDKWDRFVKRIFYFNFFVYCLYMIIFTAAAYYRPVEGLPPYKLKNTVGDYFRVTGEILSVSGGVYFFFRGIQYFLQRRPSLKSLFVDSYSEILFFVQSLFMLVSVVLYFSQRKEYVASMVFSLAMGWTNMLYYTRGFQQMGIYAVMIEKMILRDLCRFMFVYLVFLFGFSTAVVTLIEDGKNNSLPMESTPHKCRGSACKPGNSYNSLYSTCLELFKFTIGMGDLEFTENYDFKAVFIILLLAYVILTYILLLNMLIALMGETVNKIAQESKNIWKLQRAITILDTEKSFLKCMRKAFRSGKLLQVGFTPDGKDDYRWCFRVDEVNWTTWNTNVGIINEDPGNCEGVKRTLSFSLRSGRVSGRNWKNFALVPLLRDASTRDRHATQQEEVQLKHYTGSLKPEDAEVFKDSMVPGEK

The structures appear in SMILES notation.

A word on the Ki: it is a measure of affinity in units of concentration, obtained from inhibition or displacement. Read a high Ki as weaker binding. As to `CC(C(=O)NC/C=C/c1ccc(Cl)cc1)c1ccc(NS(C)(=O)=O)c(F)c1` (configuration not stated), the Ki is 0.384 µM in assay [1] and 0.897 µM in assay [2].

For the origin of these results see ChEMBL document CHEMBL1938335, “2-(4-Methylsulfonylaminophenyl) propanamide TRPV1 antagonists: Structure-activity relationships in the B and C-regions” (Bioorg Med Chem, 2012).
